Patent US20040215284A1, “Treatment of neuromuscular dysfunction of the lower urinary tract with selective mGlu5 antagonists” (Recordati S.A., priority 2003, published 2004)

Sequences of proteins named here, by UniProt entry; tags and fusion partners are left off. Residues count along the entry.
UniProt P31424, 21-1203: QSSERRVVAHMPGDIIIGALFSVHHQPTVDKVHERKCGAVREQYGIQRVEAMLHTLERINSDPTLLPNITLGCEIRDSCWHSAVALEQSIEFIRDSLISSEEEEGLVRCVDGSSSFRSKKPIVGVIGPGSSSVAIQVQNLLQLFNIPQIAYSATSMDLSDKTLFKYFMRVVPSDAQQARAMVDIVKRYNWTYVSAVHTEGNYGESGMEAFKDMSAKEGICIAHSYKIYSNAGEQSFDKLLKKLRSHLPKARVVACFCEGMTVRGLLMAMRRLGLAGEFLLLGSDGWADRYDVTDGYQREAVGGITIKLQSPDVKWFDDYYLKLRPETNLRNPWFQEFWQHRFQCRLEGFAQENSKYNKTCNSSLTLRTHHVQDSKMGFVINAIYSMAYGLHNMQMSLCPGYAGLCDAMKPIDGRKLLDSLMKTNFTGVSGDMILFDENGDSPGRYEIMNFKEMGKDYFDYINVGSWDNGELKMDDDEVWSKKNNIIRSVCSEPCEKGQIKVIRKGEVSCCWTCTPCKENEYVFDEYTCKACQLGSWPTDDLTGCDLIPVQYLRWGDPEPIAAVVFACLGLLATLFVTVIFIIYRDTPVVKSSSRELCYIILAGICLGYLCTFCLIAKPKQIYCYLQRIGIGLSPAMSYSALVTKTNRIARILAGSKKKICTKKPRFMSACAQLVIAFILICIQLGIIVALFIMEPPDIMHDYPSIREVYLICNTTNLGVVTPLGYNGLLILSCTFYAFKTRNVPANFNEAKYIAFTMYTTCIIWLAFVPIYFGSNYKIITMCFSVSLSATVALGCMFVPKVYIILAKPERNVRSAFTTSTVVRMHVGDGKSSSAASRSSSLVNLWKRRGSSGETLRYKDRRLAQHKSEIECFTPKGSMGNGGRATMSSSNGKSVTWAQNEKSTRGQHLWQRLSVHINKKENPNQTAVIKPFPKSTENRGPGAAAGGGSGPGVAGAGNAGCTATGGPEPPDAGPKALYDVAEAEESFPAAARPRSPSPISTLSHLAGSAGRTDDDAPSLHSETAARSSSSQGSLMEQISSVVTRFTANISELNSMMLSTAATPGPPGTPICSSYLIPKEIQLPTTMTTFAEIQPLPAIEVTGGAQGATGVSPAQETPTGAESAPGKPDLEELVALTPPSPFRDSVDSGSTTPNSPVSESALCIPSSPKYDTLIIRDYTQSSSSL

Assays:
mGlu5 [1] = biological target: T1, mGlu5 (Rattus norvegicus, UniProt P31424); test: biochemical
mGlu5 [2] = biological target: T1, mGlu5; conditions: read-out: mGlu5 Ki; rat forebrain, [3H]MPEP

Compound `Cc1nc(C#Cc2cccnc2)cs1` [MTEP, 3-(2-methylthiazol-4-yl)ethynylpyridine] has a Ki (mGlu5 [1]) of 40 nM.

Compound `Cc1cccc(C#Cc2ccccc2)n1` [[^3H]MPEP, reference compound] has a Kd (mGlu5 [1]) of 10.4 nM.

`Cc1cccc(C#Cc2ccccc2)n1` [MPEP, 2-methyl-6-(phenylethynyl)pyridine] was tested, and the Ki (mGlu5 [2]) was 15 nM.

Read-outs that look alike come from different tables or passages of the source.
